Experimental data reported in ChEMBL document CHEMBL3856219, “The "Cyclopropyl Fragment" is a Versatile Player that Frequently Appears in Preclinical/Clinical Drug Molecules” (J Med Chem, 2016).

By UniProt entry, the sequences of proteins in these tests, tags left out. Where a name states a change or a piece, a line headed by the entry shows the natural chain unless it says otherwise.
UniProt P41145: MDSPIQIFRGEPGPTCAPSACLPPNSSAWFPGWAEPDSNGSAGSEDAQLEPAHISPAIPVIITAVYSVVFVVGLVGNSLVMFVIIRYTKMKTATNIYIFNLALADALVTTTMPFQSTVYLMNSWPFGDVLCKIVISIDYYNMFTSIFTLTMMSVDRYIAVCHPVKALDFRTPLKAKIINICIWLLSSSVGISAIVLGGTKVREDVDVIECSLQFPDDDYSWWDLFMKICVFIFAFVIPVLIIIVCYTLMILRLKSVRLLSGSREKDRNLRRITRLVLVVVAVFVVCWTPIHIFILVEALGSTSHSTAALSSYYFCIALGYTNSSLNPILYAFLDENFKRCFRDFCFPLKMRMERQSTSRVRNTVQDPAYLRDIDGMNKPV

Molecular target: Kappa-type opioid receptor (Homo sapiens, UniProt P41145)

C=C1CC[C@@]2(O)[C@H]3Cc4ccc(O)c5c4[C@@]2(CCN3CC2CC2)[C@H]1O5
Ki: 0.083 nM
